Reference: patent publication EP1845096A1, “12-Aza-epothilones, process for their preparation and their use as antiproliferative agents” (ETH Zürich, priority 2006, dated 2007)

System: KB-8511
Experiment: Human cancer cell growth inhibition, methylene blue staining, KB-8511 (multidrug-resistant)
Details: read-out: IC50 KB-8511; KB-8511: P-gp170 overexpressing multidrug-resistant subline of KB-31; cells exposed for 72 h

C/C(=C\c1csc(C)n1)[C@@H]1CCN(C(=O)OC(C)(C)C)CCC[C@H](C)[C@H](O)[C@@H](C)C(=O)C(C)(C)[C@@H](O)CC(=O)O1 [B, reference compound] was tested, and the IC50 was 105 nM.
